This note sets out measurements from patent US8030448.

This assay concerns the target (Pro-Hyp-Gly)8-amide. As to the kind of experiment: ultrafiltration at 4 C with Microcon YM-100, filtrate by HPLC; control triple helix.

Turning to (Pro-Hyp-Gly)8-amide (peptide), the percent of peptides passing the ultrafiltration membrane (cut-off 100,000 MW) is 56%.
